## Binding of CDR-mutated scFvs to a peptide of the spike HR2 region

Data: MIT Lincoln Laboratory AlphaSeq set, Li et al. 2023, doi:10.1038/s41467-023-39022-2, as distributed in FLAb.

Target: peptide PDVDLGDISGINAS, taken from heptad repeat 2 (HR2) of SARS-CoV-2 spike.

Parent scFv Ab-14: VH joined to VL by a 15-residue (Gly4Ser)3 linker. Changes lie in the light chain CDRs alone.
VH: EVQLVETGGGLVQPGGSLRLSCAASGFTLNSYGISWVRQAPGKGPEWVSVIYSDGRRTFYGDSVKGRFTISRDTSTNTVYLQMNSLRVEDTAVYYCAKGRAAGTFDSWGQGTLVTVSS
VL: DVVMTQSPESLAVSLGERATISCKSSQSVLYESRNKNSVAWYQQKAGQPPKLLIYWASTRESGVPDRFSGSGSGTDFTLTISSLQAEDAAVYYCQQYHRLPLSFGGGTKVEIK

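These sequences belong to a second round, designed from the earlier measurements on random variants of the parent. Several design methods are mixed in this list. The scFvs were displayed on barcoded MATa yeast, the peptide on MATalpha yeast. Pairs that bind mate more often; barcode pairs of the diploids are counted by sequencing. A regression on co-assayed BCL2-family reference pairs converts the normalised counts of each replicate to an apparent Kd. Each pool was mated in six replicate cultures.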

Variants are written as CDR1, CDR2 and CDR3 of the light chain (limits as in the source). Parent: KSSQSVLYESRNKNSVA, WASTRES, QQYHRLPLS. Values are log10 of the apparent Kd in nM; lower means stronger binding. Replicates are averaged; those with no signal do not enter the mean. Where no diploid with the target was found in any replicate, the entry reads "not detected": below detection, most likely a poor binder, though not proof of it.

CDR-L1,CDR-L2,CDR-L3,mean log10 Kd (nM),seen in
KLQQSVDYESRNKNSVA,DASTRES,QQYHRLPLS,0.18,6/6
AISMHAFYGQRDENGIA,GADVRAK,QQYYRLPLT,0.51,6/6
MVSQLMVWGLHAKNSIA,EAEHRIN,QQYDRLPLF,1.69,1/6
QIYQAMHNLMQKKNNVA,DVNERGA,QQYYRLPLS,0.35,6/6
MLSDFVKMGSRNTNSVA,DNSTRGS,QQYDRLPLS,2.00,5/6
MLRFDDTYGQKNWHAIA,ETSELGA,QQYAHLPLG,1.67,5/6
HIQDDAGGLREQFNSVA,STEERSY,QQYHRLPLS,0.05,6/6
KLRQVTGYESYNKNSVA,QTSTRAE,QDYHRLPLS,-0.28,6/6
KLSQQGLYGSRNANSVA,NADTREQ,QQYHRLPLS,-0.29,6/6
KLDQSTLYESRNPNSVA,WASTRES,QQYHRLPLS,0.21,6/6
IVSQLMLWGMHAKNSIA,EASARLN,QQYDRLPLF,0.66,6/6
KMSQSVDYEDRNCNAVA,SASQREE,QQYHRLPLS,0.29,6/6
TISQITSTFSMNINNVA,EVSTREK,QQYDRLPLS,0.12,6/6
KSSQAVLYEWTNKNSVA,KASTRES,QQYHRLPLS,1.53,2/6
QIYQAMHTLTQMKDNVA,DVNERGN,QQYFRLPLS,0.20,6/6
KIMQSLNYESFNKSSVA,GQETRER,QSYHRLPLS,3.21,1/6
TISMSMNWLTFNKNNIA,EESTREE,QQYDRLPLS,not detected,0/6
KSSQSSLYMSRNKNSVA,AASTRES,QQYHRLPLL,0.33,6/6
KVSQSWLMEQRNKNSVA,EASTRQS,QQYHRLPLS,0.39,6/6
KVSQSVLYESREKNSVA,NASTRES,QQYHRLPLS,-0.03,6/6
KFSQWSLYESRTKNSVA,NASTRES,QQYHRLPLS,0.26,6/6
KSSQSVLYESRNKNSVA,WASTREM,QQVHRLPLS,not detected,0/6
HMSMLTMMGMRHRNSVA,QMTMREN,QQYDRLPLT,1.95,5/6
KISFQYRYEQLSKNSIA,EVQTRLK,QQYDRLPLS,1.44,6/6
ELQWQQYGENAMEAAIA,NEGTRHQ,QQYSRLPLT,0.81,6/6
KSSQSVFYESRNKNSVA,EASTRED,QQYHRLPLT,0.37,6/6
KVIQSVLYESRNKNSVA,WASTRTS,QQYHRLPLS,2.18,3/6
KVSQSVLYESRNQNSVA,NASTRES,QQYHRLPLS,-0.28,6/6
KFSQSVLYESRGKASVA,NASTRRS,QQYHRLPLS,0.94,6/6
KLYQNVGTMSLNKQSIA,DMERRED,QQYHRLPLS,0.46,6/6
KSPQSVLYESRNFNSVA,HASTRED,QQYHRLPLS,0.49,6/6
KFSQSQLYESRTKNSVA,NASTRES,QWYHRLPLS,0.22,6/6
MGLESYQQGVHEMNNIA,EGDQKLD,QQYYRLPLL,0.47,5/6
TLMQVGGYEMNAHNSIA,DLRTRED,QQYHRLPLS,0.89,6/6
QISGITGHQSMSKNNVA,EMVTRVN,QQYNRLPLS,-0.10,6/6
ILEENSDDITEQGNSIA,ETNMVRS,QQYHRLPLA,2.25,4/6
KFMYSGEYQMHEQNNIA,HGNIKTV,QQYFRLPIY,0.41,6/6
KINERMRSGENSQHSIA,NATEIVK,QQYHNLPLG,1.70,6/6
KIATMGEHFSTNHSAIA,QASTREQ,QQYHRLPIS,1.12,6/6
SISASMAFLSRNKNSVA,ENSTREY,QQYDRLPLL,0.64,6/6
KFSQEKLYESRNKNSVA,DASTRES,QQYHRLPLS,0.10,6/6
KSSQSTLYESGMKNSVA,NASKRMD,QQYHRLPLS,0.18,6/6
KSSQSVLNESRNKNSVA,DASTRLS,QQYHRMPLS,0.52,6/6
KVSEFMKGLMSRGDSIA,DNVTRSN,QQYDRLPLS,1.42,6/6
KLFDELSVEQVNARNVA,DALATME,QQYKMLPLS,0.15,6/6
KTSQSVLYESRNKNSVA,WASTRVS,KQYHRLPLS,1.49,6/6
KLPQSTGYESRNKNSVA,NASTRES,QQYHRLPLS,0.18,6/6
TIGSTLMYGSRNRSNVA,EVSERLN,QQYDRLPLL,2.90,6/6
KMEQSDLLESRNVNSVA,QASTRES,QQYHRLPLS,-0.30,6/6
KSSQSDLESVRNKNSVA,NASKREL,QQYHRLPLS,0.36,6/6
KSSQSVIEESRNKNSVA,WASTRES,QQYHRLPLS,1.71,4/6
KLQQSQEYESRNKNSVA,DASQRLV,QQYHRLPLS,0.10,6/6
KLLQSVDYESRNKNSVA,HASTRED,QQYHRLPLS,0.21,6/6
TISTMMRYESSLKNAIA,NAQTRES,QQYHRLPIS,2.09,1/6
KYWISHLGESRNKNAVA,NASTREE,QQYHRLPLS,0.06,6/6
KITATMRFEQKNSNNIA,EVSMRTK,QQYYRLPLS,-0.02,6/6
KQSWSVLFESRNKNSVA,DASTRES,QQYHRLPLS,-0.39,6/6
LSSQSVLYESRNKNSVA,WASTRES,QQYHRVPES,not detected,0/6
KLSQSHLYESRNKNSVA,NASTRES,QDYHRLPLS,0.10,6/6
KSSQSWLYESRNFNSVA,GASTRYS,QQYHRLPLS,0.41,6/6
KLSQSWLYESRNKNSVA,SASQRES,QQYHRLPLS,-0.34,6/6
KSSISVLYESMNKNSVA,EASQRES,QQYHRLPLS,0.39,6/6

5 of these entries, quoted again:

CDR-L1,CDR-L2,CDR-L3,mean log10 Kd (nM),seen in
KLLQSVDYESRNKNSVA,HASTRED,QQYHRLPLS,0.21,6/6
HIQDDAGGLREQFNSVA,STEERSY,QQYHRLPLS,0.05,6/6
KFSQSQLYESRTKNSVA,NASTRES,QWYHRLPLS,0.22,6/6
KLSQSWLYESRNKNSVA,SASQRES,QQYHRLPLS,-0.34,6/6
TIGSTLMYGSRNRSNVA,EVSERLN,QQYDRLPLL,2.90,6/6

Three control strains display no target. For all light chain designs, 4% of the pairings with them gave a signal, with a median of 2.64 and one signal in twenty below 1.59, so weak values seen in few replicates may be background. Values of this round are not directly comparable with the first-round values of the same sequences. The parent sequence was in this pool as ten entries: three were never detected, three once, and four in most replicates, with averages from 0.34 to 2.37. The authors averaged sequences with at least three values out of six and counted those with two or fewer as poor binders.